Results reported in patent US20120059056A1, “CARBONATE DERIVATIVES AS SKIN CARE” (EASTMAN CHEMICAL COMPANY, priority 2010, published 2012).

Sequences of proteins named here, by UniProt entry; tags and fusion partners are left off. Residues count along the entry.
UniProt P41365, 26-342: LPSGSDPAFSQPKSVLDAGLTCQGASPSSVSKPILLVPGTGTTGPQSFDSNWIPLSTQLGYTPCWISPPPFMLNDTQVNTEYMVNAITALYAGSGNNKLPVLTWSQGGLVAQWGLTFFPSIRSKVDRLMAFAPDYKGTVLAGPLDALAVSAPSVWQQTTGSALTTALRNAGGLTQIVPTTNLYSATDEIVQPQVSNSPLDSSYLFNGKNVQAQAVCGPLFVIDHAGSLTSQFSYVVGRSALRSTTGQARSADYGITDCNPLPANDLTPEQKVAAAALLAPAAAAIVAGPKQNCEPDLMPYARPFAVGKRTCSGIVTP

Target: Novozym 435 (immobilized Candida Antarctica lipase B) (Moesziomyces antarcticus, UniProt P41365)
Assay: Enzymatic hydrolysis with Novozym 435 in toluene / pH 7 buffer, HPLC analysis
Settings: ambient temperature
Procedure: Resveratrol tris(methyl carbonate) (100 mg; 0.249 mmol) was dissolved in 2 mL of toluene. 2 mL of pH 7 buffer was added followed by 100 mg of Novozym 435 (immobilized Candida Antarctica lipase B).
2 mL of pH 7 buffer was added followed by 100 mg of Novozym 435 (immobilized Candida Antarctica lipase B).
Resveratrol tripalmitate (100 mg; 0.11 mmol) was dissolved in 2 mL of toluene. 2 mL of pH 7 buffer was added followed by 100 mg of Novozym 435 (immobilized Candida Antarctica lipase B).
1 mL of pH 7 buffer was added followed by 100 mg of Novozym 435 (immobilized Candida Antarctica lipase B).
Hydroxytyrosol tris(methyl carbonate) (3, R=Me, 100 mg; 0.305 mmol) was dissolved in 2 mL of toluene. 2 mL of pH 7 buffer was added followed by 100 mg of Novozym 435 (immobilized Candida Antarctica lipase B).
Hydroxytyrosol trihexanoate containing 1.9% hydroxytyrosol by HPLC analysis (100 mg; 0.22 mmol) was dissolved in 2 mL of toluene. 2 mL of pH 7 buffer was added followed by 100 mg of Novozym 435 (immobilized Candida Antarctica lipase B).

[1] = 1.5 h, equal volumes of both layers

4-Hydroxybenzyl Alcohol bis(butyl carbonate)
4-hydroxybenzyl alcohol bis(butyl carbonate) remaining by HPLC analysis [1]: 41%
4-hydroxybenzyl alcohol mono(butyl carbonate), first of the two, by HPLC analysis [1]: 40%
4-hydroxybenzyl alcohol mono(butyl carbonate), second of the two, by HPLC analysis [1]: 14%
4-hydroxybenzyl alcohol by HPLC analysis (1.5 h, equal volumes of both layers, analysis stated inaccurate due to insolubility): 1.5%
mono- and bis-carbonates by HPLC analysis (21 h): very little
